# Measurements taken from PubChem BioAssay AID1222 (Sanford-Burnham Center for Chemical Genomics, 2008).
# Some of the results follow. Entries with a potency or affinity are not part of this list. Some tests of the compounds listed are not included; inactive here does not mean inactive elsewhere. Activity calls are given as the source filed them.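 The calls were made as follows: active = EC50 below 50 µM in the dose-response confirmation; inactive = the rest.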
# Experiment: rescue of cells from ER stress-induced death, primary screen, 384-well, CSM14.1, thapsigargin, ATP luminescence (AID 1222);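 also: death triggered by thapsigargin at about 15 µM added after 2 h compound pretreatment; cell ATP read after overnight thapsigargin exposure of roughly 18 to 22 hours; reference of the scale not given here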
# Settings: CSM14.1 thapsigargin-induced death rescue, at 20 µM, stronger effect = higher value
row,SMILES,cellular ATP content (survival)
1,C=CCN1CCN(CCOC(=O)C(O)(c2ccccc2)c2ccccc2)CC1,inactive: -1.4%
2,CCN1CCCC(OC(=O)C2(O)c3ccccc3C=Cc3ccccc32)C1 (stereo not drawn),inactive: -0.6%
3,Cc1ccccc1C(=O)NCC1(N2CCCCC2)CCCCC1,inactive: -1.7%
4,CN(C)C1CCCC1OC(=O)C(O)(c1ccccc1)c1ccccc1 (stereo not drawn),inactive: -2.9%
5,CC(C)N1C(=O)CC2(CCN(CCOC(=O)C(O)(c3ccccc3)c3ccccc3)CC2)C1=O,inactive: -1.1%
6,O=C(NCC1(N2CCCCC2)CCCCC1)c1cc([N+](=O)[O-])ccc1Cl,inactive: -1.8%
7,CN(C)c1cccc(C(=O)NCC2(N(C)C)CCCCC2)c1,inactive: 1.3%
8,COc1cccc(C(=O)NCC2(N3CCCCC3)CCCCC2)c1,inactive: -2.1%
